We go through one molecule from ChEMBL document CHEMBL3639213, “2,5-disubstituted piperidine orexin receptor antagonists” (2014).

Protein sequences, listed by entry. Tags and fused reporters are not part of them.
UniProt P56718, whole entry: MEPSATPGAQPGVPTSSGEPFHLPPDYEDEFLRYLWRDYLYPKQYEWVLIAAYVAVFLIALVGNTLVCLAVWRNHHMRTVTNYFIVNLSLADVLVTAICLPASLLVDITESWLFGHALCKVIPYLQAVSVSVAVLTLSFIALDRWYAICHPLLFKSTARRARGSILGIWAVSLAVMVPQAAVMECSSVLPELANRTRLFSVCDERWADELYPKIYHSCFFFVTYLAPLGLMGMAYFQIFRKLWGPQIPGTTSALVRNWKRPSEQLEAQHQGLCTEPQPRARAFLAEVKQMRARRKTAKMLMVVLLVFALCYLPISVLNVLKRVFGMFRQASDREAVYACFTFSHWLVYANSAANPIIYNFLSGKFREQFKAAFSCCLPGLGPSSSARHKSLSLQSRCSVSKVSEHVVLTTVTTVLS

pKi: −log10 of the molar value.

This assay addresses Orexin/Hypocretin receptor type 1 (Rattus norvegicus, UniProt P56718). Nature of the assay: Radioligand Binding Assay: Compound potency can be assessed by a radioligand binding assay (described in Bergman et. al. Bioorg. Med. Chem. Lett. 2008, 18, 1425-1430) in which the inhibition constant (Ki) is determined in membranes prepared from CHO cells expressing either the orexin-1 (OX1) or orexin-2 (OX2) receptor. Format: cell membranes.

The term pKi denotes the negative decadic logarithm of the Ki, by convention in mol/L. A lower pKi goes with a high Ki. Consider `C[C@@H]1CC[C@@H](Oc2nccc3ccccc23)CN1C(=O)c1ccccc1-n1nccn1`, for which the pKi was 8.47.
